Results from patent US4803223A (priority 1985, dated 1989).

Tested on: CD2F1-strain mice
Assay: Acute toxicity in mice
Conditions: i.p., 20 days, Litchfield and Wilcoxon
Method: A CACU solution prepared as in Test Example A was injected intraperitoneally into CD2F1 -strain mice (male) having a body weight of about 20 g in an amount of 2512, 1995, 1585, 1259, 1000 and 994 mg/kg, and the acute toxicity test was carried out for 20 days. The acute toxicity value (LD50) was determined by the method of Litchfield and Wilcoxon, and found to be 1025 mg/kg.

O=C(NCCCl)Nc1ccc(N(CCCl)CCCl)cc1
acute toxicity value (LD50): 1025 mg/kg
